Consider one compound from patent US20140057915A1, “KINASE INHIBITORS” (TOPIVERT PHARMA LIMITED, priority 2012, published 2014).

Sequences of proteins named here, by UniProt entry; tags and fusion partners are left off.
UniProt P12931, whole entry: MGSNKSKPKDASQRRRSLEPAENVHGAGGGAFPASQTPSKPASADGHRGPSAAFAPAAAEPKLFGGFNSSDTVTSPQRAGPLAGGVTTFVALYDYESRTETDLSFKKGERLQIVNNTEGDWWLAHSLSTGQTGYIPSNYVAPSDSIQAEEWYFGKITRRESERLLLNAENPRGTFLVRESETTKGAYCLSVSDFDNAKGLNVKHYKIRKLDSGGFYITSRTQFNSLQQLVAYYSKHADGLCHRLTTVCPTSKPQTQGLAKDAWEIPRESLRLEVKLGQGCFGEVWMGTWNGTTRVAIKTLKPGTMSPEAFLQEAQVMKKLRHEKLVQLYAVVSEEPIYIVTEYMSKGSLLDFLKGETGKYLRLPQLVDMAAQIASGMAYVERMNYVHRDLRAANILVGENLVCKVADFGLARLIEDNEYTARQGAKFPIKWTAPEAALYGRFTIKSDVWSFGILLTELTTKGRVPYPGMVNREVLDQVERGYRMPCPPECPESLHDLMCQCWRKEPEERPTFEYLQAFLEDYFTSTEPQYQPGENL

Assay [1] addresses cSrc (Homo sapiens, UniProt P12931). The assay is described as follows: c-Src enzyme inhibition (FRET). Format: biochemical. Particulars: Table 4a1. Here is the method: The enzyme inhibitory activities of compounds disclosed herein are determined by FRET using synthetic peptides labelled with both donor and acceptor fluorophores (Z-LYTE, Invitrogen Ltd., Paisley, UK).
The relevant enzyme (3000 ng/mL or 2000 ng/mL respectively, 2.5 μL) is incubated with the test compound (either 4 μg/mL, 0.4 μg/mL, 0.04 μg/mL, or 0.004 μg/mL, 2.5 μL each) for 2 hr at RT. The FRET peptides (8 μM, 2.5 μL), and appropriate ATP solutions (2.5 μL, 800 μM for c-Src, and 60 μM ATP for Syk) are then added to the enzymes/compound mixtures and incubated for 1 hr. Development reagent (protease, 5 μL) is added for 1 hr prior to detection in a fluorescence microplate reader (Varioskan® Flash, ThermoFisher Scientific).
In all cases, the site-specific protease cleaves non-phosphorylated peptide only and eliminates the FRET signal. Phosphorylation levels of each reaction are calculated using the ratio of coumarin emission (donor) over fluorescein emission (acceptor), for which high ratios indicate high phosphorylation and low ratios indicate low phosphorylation levels.

In assay [2] the test system is ICAM-1 expression, BEAS2B cells. Put plainly: Poly I:C-induced ICAM-1 expression in BEAS2B cells. Particulars: Homo sapiens, BEAS-2B; read-out: Poly IC induced ICAM1 in BEAS2B, IC50. It is filed as cell-based. Here is the method:
(f) Poly I:C-Induced ICAM-1 Expression in BEAS2B Cells
Poly I:C is used in these studies as a simple, RNA virus mimic. Poly I:C-Oligofectamine mixture (1 μg/mL Poly I:C, ±2% Oligofectamine, 25 μL; Invivogen Ltd., San Diego, Calif., and Invitrogen, Carlsbad, Calif., respectively) is transfected into BEAS2B cells (human bronchial epithelial cells, ATCC). Cells are pre-incubated with final concentrations of test compounds for 2 hr and the level of ICAM1 expression on the cell surface is determined by cell-based ELISA. […]
The cells are washed with PBS-Tween (3×200 μL) and incubated with the secondary antibody (100 μL; HRP-conjugated anti-rabbit IgG, Dako Ltd., Glostrup, Denmark). […] The ICAM-1 signal is detected by reading the absorbance at 450 nm against a reference wavelength of 655 nm using a spectrophotometer. The cells are then washed with PBS-Tween (3×200 μL) and total cell numbers in each well are determined by reading absorbance at 595 nm after Crystal Violet staining (50 μL of a 2% solution in PBS) and elution by 1% SDS solution (100 μL) in distilled water. The measured OD 450-655 readings are corrected for cell number by dividing with the OD595 reading in each well. The inhibition of ICAM-1 expression is calculated at each concentration of test compound by comparison with vehicle control.

A word on the IC50: it is the point on the concentration scale where inhibition reaches its midpoint.

`Cc1ccc(-n2nc(C(C)C)cc2NC(=O)Nc2ccc(Oc3ccnc(Nc4cccc(C(=O)NCCN5CCOCC5)c4)n3)c3ccccc23)cc1` [Example 19, 3-((4-((4-(3-(3-isopropyl-1-(p-tolyl)-1H-pyrazol-5-yl)ureido)naphthalen-1-yl)oxy)pyrimidin-2-yl)amino)-N-(2-morpholinoethyl)benzamide]: the IC50 in assay [1] was determined as 2 nM; in assay [2] it was 2.1 nM.
